In patent US11912668B2, “GCN2 and perk kinase inhibitors and methods of use thereof” (Deciphera Pharmaceuticals, LLC, priority 2020, dated 2024) one finds IC50 data, which are given here for 1 compound.

Amino acid sequences for entries named in this document (tags omitted). Chains listed by the source or under a name are the forms on record and can include a tag or linker. Residues count along the entry.
UniProt Q9NZJ5, 564-1116 with tags or gaps limits assumed: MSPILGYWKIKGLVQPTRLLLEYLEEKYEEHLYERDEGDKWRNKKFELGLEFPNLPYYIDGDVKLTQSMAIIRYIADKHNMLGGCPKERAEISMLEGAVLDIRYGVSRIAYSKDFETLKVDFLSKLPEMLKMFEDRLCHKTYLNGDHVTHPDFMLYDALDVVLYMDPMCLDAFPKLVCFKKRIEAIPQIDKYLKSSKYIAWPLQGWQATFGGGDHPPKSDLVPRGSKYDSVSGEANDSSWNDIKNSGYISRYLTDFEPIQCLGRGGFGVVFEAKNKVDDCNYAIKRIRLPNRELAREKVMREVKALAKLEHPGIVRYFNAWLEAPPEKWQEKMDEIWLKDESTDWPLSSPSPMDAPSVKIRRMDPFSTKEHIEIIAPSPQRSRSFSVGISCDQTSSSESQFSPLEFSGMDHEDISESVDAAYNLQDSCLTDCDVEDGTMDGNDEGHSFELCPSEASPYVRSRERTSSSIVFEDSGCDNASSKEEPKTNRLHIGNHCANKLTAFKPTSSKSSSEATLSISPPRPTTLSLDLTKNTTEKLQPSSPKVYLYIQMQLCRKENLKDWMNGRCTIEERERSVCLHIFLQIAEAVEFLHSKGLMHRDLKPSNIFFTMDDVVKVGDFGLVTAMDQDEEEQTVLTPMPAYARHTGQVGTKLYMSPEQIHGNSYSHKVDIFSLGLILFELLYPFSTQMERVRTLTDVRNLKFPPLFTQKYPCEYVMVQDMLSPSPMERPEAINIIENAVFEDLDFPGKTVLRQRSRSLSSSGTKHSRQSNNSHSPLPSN
UniProt Q9P2K8, whole entry: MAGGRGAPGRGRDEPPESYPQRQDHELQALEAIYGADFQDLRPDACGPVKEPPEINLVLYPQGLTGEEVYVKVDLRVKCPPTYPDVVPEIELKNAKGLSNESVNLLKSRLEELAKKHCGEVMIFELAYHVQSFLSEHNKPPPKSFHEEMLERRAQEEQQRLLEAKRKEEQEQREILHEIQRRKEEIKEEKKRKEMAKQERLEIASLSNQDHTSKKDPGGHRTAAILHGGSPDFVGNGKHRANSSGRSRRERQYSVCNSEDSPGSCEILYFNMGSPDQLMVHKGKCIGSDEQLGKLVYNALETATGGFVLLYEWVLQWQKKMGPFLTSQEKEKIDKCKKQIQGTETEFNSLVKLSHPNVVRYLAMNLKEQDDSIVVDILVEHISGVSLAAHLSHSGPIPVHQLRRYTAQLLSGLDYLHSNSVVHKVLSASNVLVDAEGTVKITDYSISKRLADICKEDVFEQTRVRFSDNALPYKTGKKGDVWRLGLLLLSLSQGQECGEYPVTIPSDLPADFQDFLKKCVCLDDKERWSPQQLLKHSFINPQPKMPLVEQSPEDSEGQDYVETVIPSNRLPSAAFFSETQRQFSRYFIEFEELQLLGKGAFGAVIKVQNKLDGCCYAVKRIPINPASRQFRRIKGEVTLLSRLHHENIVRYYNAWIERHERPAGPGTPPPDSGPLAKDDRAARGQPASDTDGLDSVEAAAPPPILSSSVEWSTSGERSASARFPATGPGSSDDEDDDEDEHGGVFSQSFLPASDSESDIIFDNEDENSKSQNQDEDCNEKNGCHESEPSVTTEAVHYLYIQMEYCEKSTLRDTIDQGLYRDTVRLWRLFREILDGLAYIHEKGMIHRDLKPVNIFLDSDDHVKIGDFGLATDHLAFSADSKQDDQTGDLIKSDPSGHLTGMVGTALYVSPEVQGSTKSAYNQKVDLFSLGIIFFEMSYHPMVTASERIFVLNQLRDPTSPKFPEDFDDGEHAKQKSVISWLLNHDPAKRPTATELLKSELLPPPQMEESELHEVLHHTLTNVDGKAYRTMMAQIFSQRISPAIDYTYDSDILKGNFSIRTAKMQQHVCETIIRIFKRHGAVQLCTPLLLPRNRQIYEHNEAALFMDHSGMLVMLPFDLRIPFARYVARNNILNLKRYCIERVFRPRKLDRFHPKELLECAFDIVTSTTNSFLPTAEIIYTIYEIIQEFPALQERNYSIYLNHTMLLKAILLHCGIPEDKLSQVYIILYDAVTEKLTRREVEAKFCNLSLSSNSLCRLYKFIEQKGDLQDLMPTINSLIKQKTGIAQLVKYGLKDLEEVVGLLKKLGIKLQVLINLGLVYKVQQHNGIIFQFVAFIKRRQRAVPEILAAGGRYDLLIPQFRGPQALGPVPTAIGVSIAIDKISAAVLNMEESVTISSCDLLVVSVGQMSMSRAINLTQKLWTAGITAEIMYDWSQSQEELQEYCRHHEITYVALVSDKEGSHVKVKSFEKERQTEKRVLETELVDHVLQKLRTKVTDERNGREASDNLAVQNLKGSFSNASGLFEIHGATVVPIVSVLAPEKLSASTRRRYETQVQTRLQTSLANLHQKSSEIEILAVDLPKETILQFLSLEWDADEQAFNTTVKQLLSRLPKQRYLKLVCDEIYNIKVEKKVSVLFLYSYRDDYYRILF

In assay [1] the test system is ATF4 in CCRF-CEM leukemia cells (PERK). As to the kind of experiment: CCRF-CEM TG ATF4 ELISA, phenotypic assay for cellular inhibition of PERK preactivated by thapsigargin. The following applies: read-out: CCRF-CEM Thapsigargin ATF4 ELISA; Thapsigargin (1 μM) stimulated CCRF-CEM cells. On the procedure: CCRF-CEM leukemia cells (catalog #CCL-116) were obtained from the American Type Culture Collection (ATTC, Manassas, VA). Briefly, cells were grown in RPMI-1640 medium supplemented with 10% heat-inactivated fetal bovine serum (Invitrogen, Carlsbad, CA) and 1% Penicillin/Streptomycin/L-Glutamine at 37° C., 5% CO2, and 95% humidity. Cells were expanded until reaching one million cells per mL at which time they were subcultured or harvested for assay use. One million five hundred thousand cells per well in 1 mL complete growth medium were dispensed into 12-well plates and incubated overnight. A serial dilution of test compound was added and cells were incubated at 37° C., 5% CO2, and 95% for three hours, then 1 μM thapsigargin was added and cells were incubated for an additional hour at 37° C., 5% CO2, and 95%. Cells were lysed then ATF4 levels were measured using an ELISA assay (Proteintech, Rosemont, IL). Absorbance was measured at 450 nm and 544 nM using a Synergy2 or equivalent reader (Biotek, Winooski VT). Data was analyzed using PRISM software (Graphpad, San Diego, CA) to calculate IC50 values.
A general note: An ELISA detects its analyte on a solid surface through an enzyme-linked reagent.

In assay [2] the target is PERK kinase (Homo sapiens (Human), UniProt Q9NZJ5). Briefly: Biochemical assay for PERK (coupled pyruvate kinase/lactate dehydrogenase assay). As to conditions: read-out: PERK IC50; 1 mM ATP, rate from 2-3 h time frame. On the procedure: Activity of PERK kinase was determined spectroscopically using a coupled pyruvate kinase/lactate dehydrogenase assay that continuously monitors the ATP hydrolysis-dependent oxidation of NADH (e.g., Schindler et al. Science (2000) 289: 1938-1942). Assays were conducted in 384-well plates (100 μL final volume) using 10 nM PERK (from Beryllium), 0.25 mg/mL Myelin Basic Protein substrate, 1.5 units pyruvate kinase, 2.1 units lactate dehydrogenase, 1 mM phosphoenol pyruvate, 0.28 mM NADH and 1 mM ATP in assay buffer (100 mM Tris, pH 7.5, 15 mM MgCl2, 0.5 mM DTT, 0.004% (w/v) BSA, and 0.004% Triton X-100). Inhibition of PERK was measured by adding serial diluted test compound (final assay concentration of 1% DMSO). A decrease in absorption at 340 nm was monitored continuously for 6 hours at 30° C. on a multi-mode microplate reader (BioTek). The reaction rate was calculated using the 2-3 h time frame. The reaction rate at each concentration of compound was converted to percent inhibition using controls (i.e. reaction with no test compound and reaction with a known inhibitor) and IC50 values were calculated using software routines in Prism (GraphPad software).

Assay [3] has as its system CCRF-CEM leukemia cells. Briefly: CCRF-CEM ASNase cell proliferation assay, phenotypic assay for cellular inhibition of GCN2. As to conditions: read-out: CCRF-CEM ASNase Cell Proliferation; ASNase treated CCRF-CEM cells, 1 mU/mL ASNase, 72 h. On the procedure: CCRF-CEM leukemia cells (catalog #CCL-116) were obtained from the American Type Culture Collect (ATTC, Manassas, VA). Cells were grown in RPMI-1640 medium supplemented with 10% heat-inactivated fetal bovine serum (Invitrogen, Carlsbad, CA) and 1% Penicillin/Streptomycin/L-Glutamine at 37° C., 5% CO2, and 95% humidity. Cells were expanded until reaching one million cells per mL at which time they are subcultured or harvested for assay use. Ten thousand cells per well in 200 μL RPMI-1640 supplemented with 10% heat-inactivated fetal bovine serum and 1% Penicillin/Streptomycin were dispensed into a 96-well black clear bottom plate. A serial dilution of test compound and 1 mU/mL ASNase was added in triplicate and plates were incubated for 72 h at 37° C., 5% CO2, and 95% humidity. At the end of the incubation, 40 μL of a […] solution of resazurin (Sigma, St. Louis, MO) in PBS was added to each well of the plate and plates were incubated for an additional 6 h at 37° C., 5% CO2, and 95% humidity. Plates were read on a Synergy2 or equivalent reader (Biotek, Winooski VT) using an excitation of 540 nm and an emission of 600 nm. Data was analyzed using GraphPad Prism software (GraphPad, San Diego, CA) to calculate IC50 values.

In assay [4] the target is GCN2 kinase (Homo sapiens (Human), UniProt Q9P2K8). Briefly: Biochemical assay for GCN2 (TR-FRET kinase activity assay). The following applies: read-out: GCN2 IC50; 1 mM ATP, 3-hour incubation. The procedure:
Activity of GCN2 kinase was determined using a TR-FRET kinase activity assay (e.g. Riddle et al. Analytical Biochemistry (2006) 356(1) 108-116). Assays were conducted in 384-well plates (13 μL assay volume) using 2 nM GCN2 (Carna Biosciences), 130 nM GFP-EIf2α (Invitrogen), 0.2 mg/mL E. coli tRNA (sigma) and 1 mM ATP in kinase buffer (Invitrogen). Inhibition of GCN2 was measured by adding serial diluted test compound (final assay concentration of 0.5% DMSO) followed by a 3-hour incubation. Tb-peIF2α (pSer52) antibody (Invitrogen) (2 nM final assay concentration) in kinase buffer containing ETDA (final assay concentration of 20 mM) was added. After a 60 min incubation at room temperature, TR-FRET was monitored using an excitation wavelength of 340 nm and emission wavelengths of 490 nm and 520 nm. The emission ratio (520/490) at each compound concentration of was converted to percent inhibition using controls (i.e. reaction with no test compound and reaction with a known inhibitor) and IC50 values were calculated by fitting a four-parameter sigmoidal curve to the data using Prism (GraphPad software).

As to `CC(=O)Nc1cc2nc(C)c(-c3cccc(NS(=O)(=O)c4cc(Cl)cc(CO)c4Cl)c3F)cc2cn1`, the IC50 in assay [1] is 100 to 500 nM; in assay [2], below 100 nM; in assay [3], below 100 nM; in assay [4] it was below 100 nM.
